{"sequences": {"note": "By UniProt entry, the sequences of proteins in these tests, tags left out. Where a name states a change or a piece, a line headed by the entry shows the natural chain unless it says otherwise.", "UniProt Q02127": "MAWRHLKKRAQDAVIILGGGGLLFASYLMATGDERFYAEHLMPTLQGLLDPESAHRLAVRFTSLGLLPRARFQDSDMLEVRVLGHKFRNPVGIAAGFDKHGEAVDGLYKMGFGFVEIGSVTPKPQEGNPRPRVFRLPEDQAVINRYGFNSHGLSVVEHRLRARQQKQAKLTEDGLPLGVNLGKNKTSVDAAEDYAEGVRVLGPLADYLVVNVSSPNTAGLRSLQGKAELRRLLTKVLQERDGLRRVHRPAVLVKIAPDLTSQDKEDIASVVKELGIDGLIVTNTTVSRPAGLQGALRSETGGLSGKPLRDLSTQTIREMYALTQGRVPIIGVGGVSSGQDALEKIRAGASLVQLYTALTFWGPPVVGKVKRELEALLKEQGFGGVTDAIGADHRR"}, "source": "patent US20250388602A1", "about": "(Genase Therapeutics B.V., priority 2022, published 2025)", "target": "recombinant human DHODH (Homo sapiens (Human), UniProt Q02127)", "experiment": "DHODH enzyme assay (Assay A), DCIP absorbance", "type": "biochemical", "description": "Inhibition of human dihydroorotate dehydrogenase (DHODH) by example compounds as described herein was determined using one of two assays as described below.\nDHODH enzyme assays were performed with 6 nM recombinant human DHODH (purified essentially as described by Walse et al., Biochemistry, 47, 8929-8936 (2008)). The reaction mixture consisted of 1 mM DL-dihydroorotic acid (#D7003, Sigma-Aldrich), 100 μM 3,4-dimethoxy-5-methyl-p-benzoquinone (#D9150, Sigma-Aldrich), and 100 μM 2,6-dichlorophenolindophenol sodium salt (DCIP) (#D1878, Sigma-Aldrich) in enzyme buffer (50 mM Tris-HCl pH 8.0, 0.1% Triton X-100, 150 mM KCl). A stock solution of 20 mM DCIP was prepared in enzyme buffer and filtered through Whatman paper just before use. Reactions were performed in a total volume of 100 μL, consisting of 1 μL of compound, 49 μL of enzyme and 50 μL of reaction mixture. Loss in absorbance by chromogen DCIP was measured at 595 nm following a 70 minute incubation at 32° C.", "data": [{"compound": "CN(C)C(=O)c1cccc(-n2ncc3c2COC[C@H]3NC(=O)c2ncn3c2CCCC3)c1Cl", "note": "[Ex-70, (S)—N-(1-(2-chloro-3-(dimethylcarbamoyl)phenyl)-1,4,5,7-tetrahydropyrano[3,4-c]pyrazol-4-yl)-5,6,7,8-tetrahydroimidazo[1,5-a]pyridine-1-carboxamide]", "values": [{"measurement": "IC50", "result": "0.01 to 0.1", "unit": "µM"}]}]}
